Values quoted from earlier work in publication PMC3400110 (Journal of Medicinal Chemistry, 2009).

Chains of the proteins cited; added tags and fusions are not shown.
UniProt P08183, whole entry: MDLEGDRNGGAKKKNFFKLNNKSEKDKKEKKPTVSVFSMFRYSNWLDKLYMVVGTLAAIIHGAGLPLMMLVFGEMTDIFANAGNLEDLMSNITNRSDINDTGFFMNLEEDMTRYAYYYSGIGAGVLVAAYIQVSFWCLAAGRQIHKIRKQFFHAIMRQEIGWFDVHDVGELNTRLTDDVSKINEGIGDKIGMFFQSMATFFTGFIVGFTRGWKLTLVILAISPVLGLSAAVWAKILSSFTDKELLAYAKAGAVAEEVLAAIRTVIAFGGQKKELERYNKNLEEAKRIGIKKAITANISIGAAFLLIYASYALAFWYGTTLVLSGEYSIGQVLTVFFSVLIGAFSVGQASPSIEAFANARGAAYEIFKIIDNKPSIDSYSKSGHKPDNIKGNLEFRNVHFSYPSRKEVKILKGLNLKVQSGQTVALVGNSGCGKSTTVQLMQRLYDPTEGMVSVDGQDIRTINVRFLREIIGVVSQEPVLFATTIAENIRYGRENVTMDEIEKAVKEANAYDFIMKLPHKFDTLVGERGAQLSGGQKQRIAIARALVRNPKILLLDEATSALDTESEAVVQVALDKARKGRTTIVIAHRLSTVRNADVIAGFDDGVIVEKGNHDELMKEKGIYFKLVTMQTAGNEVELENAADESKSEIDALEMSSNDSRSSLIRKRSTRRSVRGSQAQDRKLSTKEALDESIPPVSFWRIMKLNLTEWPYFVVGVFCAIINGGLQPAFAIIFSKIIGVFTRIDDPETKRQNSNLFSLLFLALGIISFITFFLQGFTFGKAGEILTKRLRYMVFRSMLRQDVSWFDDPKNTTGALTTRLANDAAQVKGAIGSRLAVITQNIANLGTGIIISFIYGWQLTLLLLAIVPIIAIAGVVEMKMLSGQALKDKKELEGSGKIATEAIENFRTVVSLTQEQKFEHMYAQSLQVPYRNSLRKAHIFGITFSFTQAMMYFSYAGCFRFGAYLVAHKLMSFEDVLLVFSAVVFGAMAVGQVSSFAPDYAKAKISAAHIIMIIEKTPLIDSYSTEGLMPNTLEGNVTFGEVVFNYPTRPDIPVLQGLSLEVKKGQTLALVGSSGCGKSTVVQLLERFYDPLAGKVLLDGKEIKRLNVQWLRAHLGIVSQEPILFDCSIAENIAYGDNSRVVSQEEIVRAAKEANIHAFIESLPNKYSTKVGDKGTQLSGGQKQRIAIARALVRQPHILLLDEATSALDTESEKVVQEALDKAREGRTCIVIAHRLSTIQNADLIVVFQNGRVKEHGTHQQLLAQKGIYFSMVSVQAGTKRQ

Molecular target: human P-gp (Homo sapiens, UniProt P08183)
Settings: cited from earlier work

O[C@@H](COc1cccc2ncccc12)CN1CCN([C@@H]2c3ccccc3[C@@H]3[C@H](c4ccccc42)C3(Cl)Cl)CC1 [Compound 42]
IC50: 6.5 ± 1.1 nM
